Tests used:
[1] = target: Carbonic anhydrase 2 (Homo sapiens, UniProt P00918)
[2] = target: Carbonic anhydrase 9 (Homo sapiens, UniProt Q16790)

Row | Compound | Ki [1] | Ki [2]
1 | Nc1ccccc1S(=O)(=O)N[N+](=O)[O-] | > 50 µM | 
2 | Nc1cc(S(=O)(=O)N[N+](=O)[O-])cc([N+](=O)[O-])c1O | > 50 µM | 8.72 µM
3 | Nc1ccc(S(=O)(=O)N[N+](=O)[O-])cc1 | > 50 µM | 8.19 µM
